## Ab-95 light chain CDR variants: yeast mating affinities

The target is the same throughout: PDVDLGDISGINAS, from the HR2 region of SARS-CoV-2 spike.

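Phage display of a naive human antibody library on the peptide gave the parent. Variants in AAYL52 differ from the parent at up to three CDR positions; double and triple changes were sampled at random. The scFvs were displayed on barcoded MATa yeast, the peptide on MATalpha yeast. Binding brings cells together so that they mate, and sequencing counts the barcode pairs among the diploids. Read counts were normalised to the haploid input and turned into Kd by a linear fit to BCL2-family pairs of known affinity, for each replicate. There are three technical replicates.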

Ab-95 is the parent antibody, in scFv form: VH, then three GGGGS repeats, then VL. The heavy chain is unchanged in all variants.
VH: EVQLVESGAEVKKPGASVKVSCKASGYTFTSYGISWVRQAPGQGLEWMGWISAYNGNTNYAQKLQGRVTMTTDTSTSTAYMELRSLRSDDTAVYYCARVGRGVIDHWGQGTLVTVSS
VL: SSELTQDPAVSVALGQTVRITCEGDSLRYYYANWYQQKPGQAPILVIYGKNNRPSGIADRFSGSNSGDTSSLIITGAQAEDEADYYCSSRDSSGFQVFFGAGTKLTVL

Changes read parent residue, position, new residue, counted from the first residue of the VL shown. Values are log10 of the apparent Kd in nM; lower means stronger binding. Replicates are averaged; those with no signal do not enter the mean. A pair that was not seen in that replicate is written "nd"; this usually means weak binding, but a binder can also be missed. In this assay the parent's reference entry averaged 2.31; its copy inside this library read 2.25. As a blank, each scFv also met three strains without target: over library AAYL52, 28% of these pairings were detected, typically at 3.91 and seldom below 2.90. For each scFv, signals with the empty controls are counted beside the result, with their mean in brackets.

| changes | log10 Kd, replicates | mean, log10 nM | control signals |
|---|---|---|---|
| L27G+N52F+S93R | nd / nd / 3.93 | 3.93 | 2/9 (3.50) |
| D25S+A32I+D91P | 4.89 / nd / nd | 4.89 | 4/9 (4.05) |
| G49T+K50E+R90L | nd / nd / nd | nd | 2/9 (4.86) |
| S26N+Y31P+P54I | 3.11 / 3.85 / 2.92 | 3.30 | 4/9 (3.19) |
| Y29H+V97Q+F98Y | 2.28 / 2.43 / 2.96 | 2.55 | 1/9 (3.28) |
| Y31Q+G94W+Q96H | 4.93 / nd / 4.10 | 4.51 | 3/9 (4.12) |
| N33S+R90K | 3.89 / 5.15 / 2.91 | 3.98 | 1/9 (3.79) |
| E23P+Y29T | 3.50 / 4.06 / 2.58 | 3.38 | 2/9 (3.44) |
| A32V+Q96N+F98Q | 4.64 / nd / 3.76 | 4.20 | 0/9 |
| Y31P+K50Y+G94M | 4.44 / 3.13 / nd | 3.78 | 3/9 (3.56) |
| S88W+S89N+S93R | 3.89 / nd / nd | 3.89 | 3/9 (4.02) |
| D25L+R90F+S93L | 5.23 / nd / 3.44 | 4.33 | 3/9 (3.67) |
| G24A+N52T+F95Y | 2.84 / 2.90 / 2.23 | 2.66 | 1/9 (3.67) |
| L27I+S89F | nd / 3.33 / 3.76 | 3.54 | 4/9 (3.15) |
| K50R+N52K+S92K | 2.64 / nd / 2.50 | 2.57 | 0/9 |
| S92I+G94W+Q96K | nd / nd / nd | nd | 3/9 (3.57) |
| A32Q+P54K+S89E | 5.07 / 4.18 / nd | 4.63 | 3/9 (4.16) |
| S55T+R90Y+V97Q | nd / nd / nd | nd | 0/9 |
| D25I+Y30S+S89K | 1.91 / 1.46 / 1.38 | 1.58 | 2/9 (4.62) |
| E23L+S88E | 2.35 / 2.77 / 2.15 | 2.42 | 6/9 (4.14) |
| D25A+S88C+Q96P | 4.96 / nd / 2.80 | 3.88 | 1/9 (2.97) |
| Y31D+K50C+D91G | 2.42 / 2.47 / 1.84 | 2.24 | 3/9 (3.72) |
| D25Q+N33F+G49R | nd / 4.83 / nd | 4.83 | 1/9 (3.92) |
| Y29F+A32T | 2.98 / 3.10 / 2.11 | 2.73 | 4/9 (3.89) |
| S55T+G94D+V97W | 2.86 / 2.14 / 2.96 | 2.65 | 3/9 (3.95) |
| Y30F+G49E | nd / nd / 3.46 | 3.46 | 2/9 (3.86) |
| S26L+R53L | 3.38 / 3.12 / 4.03 | 3.51 | 7/9 (4.03) |
| R53W+Q96V+F98M | 3.45 / nd / nd | 3.45 | 4/9 (3.83) |
| D91V+S93V | 1.92 / 1.57 / 1.47 | 1.65 | 7/9 (4.15) |
| R28V+S55Y+Q96L | 4.26 / 3.81 / 4.61 | 4.23 | 3/9 (4.20) |
| S89F+R90V+S93K | nd / nd / nd | nd | 2/9 (3.33) |
| G24H+D25I+K50T | 3.02 / 2.88 / 4.03 | 3.31 | 4/9 (3.69) |
| L27G+S89K+F98G | 3.00 / 4.58 / 3.86 | 3.81 | 2/9 (3.80) |
| E23N+R28P+S89K | 3.22 / 3.05 / 2.88 | 3.05 | 2/9 (4.15) |
| R28C+R53G+F95I | 1.99 / nd / nd | 1.99 | 0/9 |
| G24V+K50N+S89F | 2.98 / 2.80 / 3.13 | 2.97 | 3/9 (4.21) |
| L27C+N33H+R53M | 4.55 / nd / nd | 4.55 | 4/9 (4.71) |
| Y30N+N51V+P54Y | 2.41 / 2.70 / 2.70 | 2.60 | 3/9 (4.52) |
| S88Q+R90W+S93Q | nd / nd / nd | nd | 0/9 |
| N33P+S93P+F95C | 4.75 / nd / nd | 4.75 | 4/9 (3.35) |
| S26V+Y29K+P54Q | 3.11 / 3.66 / 2.87 | 3.21 | 3/9 (4.35) |
| N33H+G94A+F98G | nd / nd / 4.30 | 4.30 | 2/9 (4.23) |
| G24L+Y30V+Y31F | 4.58 / 4.52 / 4.46 | 4.52 | 4/9 (3.61) |

The closing 4 entries, repeated:

| changes | log10 Kd, replicates | mean, log10 nM | control signals |
|---|---|---|---|
| N33P+S93P+F95C | 4.75 / nd / nd | 4.75 | 4/9 (3.35) |
| S26V+Y29K+P54Q | 3.11 / 3.66 / 2.87 | 3.21 | 3/9 (4.35) |
| N33H+G94A+F98G | nd / nd / 4.30 | 4.30 | 2/9 (4.23) |
| G24L+Y30V+Y31F | 4.58 / 4.52 / 4.46 | 4.52 | 4/9 (3.61) |

Data: MIT Lincoln Laboratory AlphaSeq set, Engelhart et al. 2022, doi:10.1038/s41597-022-01779-4, as distributed in FLAb.